{"source": "patent EP4763868A1", "about": "“RECOMBINANT PTH FUSION PROTEIN, CONSTRUCTION METHOD THEREFOR, AND APPLICATION THEREOF” (KANGZHONG (GUANGDONG) INC., priority 2024, dated 2025)", "assay": "Pharmacodynamic assay in animals (serum calcium, Arsenazo III calcium assay kit)", "format": "in vivo", "settings": "male C57 mice, intraperitoneal injection, 20 nmol/kg and/or 10 nmol/kg", "protocol": "Eight-week-old male C57 mice were selected for the experiment. The fusion proteins prepared in Examples 1-11 and the control TP were separately diluted with PBS to the concentrations required for the assay. The fusion proteins and TP were administered via intraperitoneal injection at two dosages: 20 nmol/kg and/or 10 nmol/kg, with 3 mice per group. Animals in the blank control group (KB) received an equal volume of normal saline via intraperitoneal injection. Blood samples were collected at 0 h (before injection) and at 1 h, 3 h, 6 h, 24 h, 48 h, and 72 h after injection. The blood samples were allowed to stand at 4°C for 1 hour, and the centrifuged at 4000 rpm for 5 minutes. The serum was harvested after centrifugation. The calcium ion concentration in the mouse serum was quantitatively determined using an Arsenazo III calcium assay kit (Zhongshan Biogentech, China) according to the manufacturer's instructions."}
{"molecule": "CC[C@H](C)[C@H](NC(=O)[C@H](CCC(=O)O)NC(=O)[C@H](CO)NC(=O)[C@@H](NC(=O)[C@@H](N)CO)C(C)C)C(=O)N[C@@H](CCC(N)=O)C(=O)N[C@@H](CC(C)C)C(=O)N[C@@H](CCSC)C(=O)N[C@@H](Cc1c[nH]cn1)C(=O)N[C@@H](CC(N)=O)C(=O)N[C@@H](CC(C)C)C(=O)NCC(=O)N[C@@H](CCCCN)C(=O)N[C@@H](Cc1c[nH]cn1)C(=O)N[C@@H](CC(C)C)C(=O)N[C@@H](CC(N)=O)C(=O)N[C@@H](CO)C(=O)N[C@@H](CCSC)C(=O)N[C@@H](CCC(=O)O)C(=O)N[C@@H](CCCNC(=N)N)C(=O)N[C@H](C(=O)N[C@@H](CCC(=O)O)C(=O)N[C@@H](Cc1c[nH]c2ccccc12)C(=O)N[C@@H](CC(C)C)C(=O)N[C@@H](CCCNC(=N)N)C(=O)N[C@@H](CCCCN)C(=O)N[C@@H](CCCCN)C(=O)N[C@@H](CC(C)C)C(=O)N[C@@H](CCC(N)=O)C(=O)N[C@@H](CC(=O)O)C(=O)N[C@H](C(=O)N[C@@H](Cc1c[nH]cn1)C(=O)N[C@@H](CC(N)=O)C(=O)N[C@@H](Cc1ccccc1)C(=O)O)C(C)C)C(C)C", "note": "[TP(PTH(1-34)), teriparatide]", "values": [{"measurement": "time within which serum calcium levels are elevated", "result": "≤ 2", "unit": "h"}, {"measurement": "time within which serum calcium restores to normal", "result": "≤ 6", "unit": "h"}]}
